The values below come from ChEMBL document CHEMBL1765045, “Fine-tuning the selectivity of aldosterone synthase inhibitors: structure-activity and structure-selectivity insights from studies of heteroaryl substituted 1,2,5,6-tetrahydropyrrolo[3,2,1-ij]quinolin-4-one derivatives” (J Med Chem, 2011).

The species entered for the assay is Homo sapiens. Kind of assay: Selectivity ratio of IC50 for human CYP11B1 to IC50 for human CYP11B2. In a few lines: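 Ratio of IC50 values from V79 MZh cell assays for human CYP11B1 and CYP11B2, IC50 CYP11B1/IC50 CYP11B2. Both assays used [4-14C]-11-deoxycorticosterone, 100 nM, inhibitor at ≥3 concentrations and HPTLC/phosphoimager readout of conversion.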

On to `COc1cncc(-c2cc3c4c(c2)CCN4C(=O)CC3)c1`, for which the Ratio IC50 was determined as 412.

In the case of `O=C1CCc2cc(-c3cncc(-c4cccc(OC(F)(F)F)c4)c3)cc3c2N1CC3`, the Ratio IC50 was found to be 129.

Turning to `O=C1CCc2cc(-c3cccnc3)cc3c2N1CCC3`, the Ratio IC50 came out at 957.

For the molecule `O=C1CCc2cc(-c3cncc(-c4cc(F)cc(F)c4)c3)cc3c2N1CC3`, the Ratio IC50 worked out at 97.

Regarding `O=C1CCc2cc(-c3cncc(-c4ccc(F)cc4)c3)cc3c2N1CC3`, the Ratio IC50 was 44.

Turning to `COc1cncc(-c2cc3c4c(c2)CCC(=O)N4CCC3)c1`, the Ratio IC50 came to 606.

As to `S=C1CCc2cc(-c3cccnc3)cc3c2N1CC3`, the Ratio IC50 worked out at 278.

`O=C1CCc2cc(-c3cncc(-c4ccc(F)c(F)c4)c3)cc3c2N1CC3`: the Ratio IC50 worked out at 215.

Take `O=C1CCc2cc(-c3cncnc3)cc3c2N1CC3`: the Ratio IC50 was 510.

In the case of `O=C1CCc2cc(-c3cncc(O)c3)cc3c2N1CC3`, the Ratio IC50 was determined as 476.

As for `O=C1CCc2cc(-c3cncc(-c4cccc(O)c4)c3)cc3c2N1CC3`, the Ratio IC50 was determined as 37.

In the case of `COc1ccc(-c2cncc(-c3cc4c5c(c3)CCN5C(=O)CC4)c2)cc1`, the Ratio IC50 was found to be 15.

For the molecule `O=C1CCc2cc(-c3cncc(-c4cccc(C(F)(F)F)c4)c3)cc3c2N1CC3`, the Ratio IC50 was found to be 141.

Consider `CC(C)Oc1cncc(-c2cc3c4c(c2)CCN4C(=O)CC3)c1`, for which the Ratio IC50 came to 47.

On to `O=C1CCc2cc(-c3cncc(-c4cccc(F)c4)c3)cc3c2N1CC3`, for which the Ratio IC50 worked out at 350.

Turning to `O=C1CCc2cc(-n3ccnc3)cc3c2N1CC3`, the Ratio IC50 is 23.

With `O=C1CCc2cc(-c3cncc(F)c3)cc3c2N1CC3`, the Ratio IC50 came to 293.

Turning to `O=C1CCc2cc(-c3cncc(-c4cc(F)ccc4F)c3)cc3c2N1CC3`, the Ratio IC50 was 51.

Turning to `O=C1CCc2cc(-c3cncc4ccccc34)cc3c2N1CC3`, the Ratio IC50 was 65.

Turning to `O=C1CCc2cc(-c3cncc(C(F)(F)F)c3)cc3c2N1CC3`, the Ratio IC50 is 24.

Turning to `COc1ccccc1-c1cncc(-c2cc3c4c(c2)CCN4C(=O)CC3)c1`, the Ratio IC50 was found to be 53.
